Test system: norepinephrine-induced mortality
Test: norepinephrine (NOR) test in rats (combined APO-TRY-NOR test)
Details: rat, s.c., norepinephrine 1.25 mg/kg i.v. 120 min after compound; for ED50 -(NOR): Table 2; for ED50 (NOR): Table 1

SMILES | ED50 -(NOR) [mg/kg] | ED50 (NOR) [mg/kg]
CC(C)N1CN(c2ccc(F)cc2)C2(CCN(C3CCC(C#N)(c4ccc(F)cc4)CC3)CC2)C1=O (centres unmarked) | 10 | 
N#CCCN1CN(c2ccc(F)cc2)C2(CCN(C3CCC(C#N)(c4ccc(F)cc4)CC3)CC2)C1=O (centres unmarked) | 5 | 
COC1(c2ccc(F)cc2)CCC(N2CCC3(CC2)C(=O)NCN3c2ccc(F)cc2)CC1 (centres unmarked) |  | 2.5
CCOC(=O)C1(c2ccc(F)cc2)CCC(N2CCC3(CC2)C(=O)NCN3c2ccccc2)CC1 (centres unmarked) |  | 10
CNC(=O)CN1CN(c2ccc(F)cc2)C2(CCN(C3CCC(C#N)(c4ccc(F)cc4)CC3)CC2)C1=O (single isomer, unassigned) | ≤ 2.5 | 
N#CC1(c2ccc(F)cc2)CCC(N2CCC3(CC2)C(=O)N(CC(N)=O)CN3c2ccc(F)cc2)CC1 (single isomer, unassigned) | 1.25 | 
CCOC(=O)C1(c2ccc(F)cc2)CCC(N2CCC3(CC2)C(=O)NCN3c2ccc(F)cc2)CC1 (centres unmarked) |  | < 2.5
CCCCOC(=O)C1(c2ccc(F)cc2)CCC(N2CCC3(CC2)C(=O)NCN3c2ccc(F)cc2)CC1 (centres unmarked) |  | 1.25
CC(=O)C1(c2ccc(F)cc2)CCC(N2CCC3(CC2)C(=O)NCN3c2ccc(F)cc2)CC1 (centres unmarked) |  | 10
CCCOC(=O)C1(c2ccc(F)cc2)CCC(N2CCC3(CC2)C(=O)NCN3c2ccc(F)cc2)CC1 (centres unmarked) |  | 1.25
CN(C)C(=O)CN1CN(c2ccc(F)cc2)C2(CCN(C3CCC(C#N)(c4ccc(F)cc4)CC3)CC2)C1=O (single isomer, unassigned) | 5 | 
COC(=O)C(C)CN1CN(c2ccc(F)cc2)C2(CCN(C3CCC(C#N)(c4ccc(F)cc4)CC3)CC2)C1=O (single isomer, unassigned) | 10 | 
N#CC1(c2ccc(F)cc2)CCC(N2CCC3(CC2)C(=O)NCN3c2ccccc2)CC1 (centres unmarked) |  | 10
N#CC1(c2ccc(F)cc2)CCC(N2CCC3(CC2)C(=O)N(Cc2ccccc2)CN3c2ccc(F)cc2)CC1 (centres unmarked) | 10 | 
